Data from patent US8871706B2, “Method for inhibiting inflammation and pre-inflammatory cytokine/chemokine expression using a ghrelin analogue” (Ipsen Pharma S.A.S., priority 2007, dated 2014).

The chains behind the UniProt entries cited, without tags or fusion partners.
UniProt Q92847, whole entry: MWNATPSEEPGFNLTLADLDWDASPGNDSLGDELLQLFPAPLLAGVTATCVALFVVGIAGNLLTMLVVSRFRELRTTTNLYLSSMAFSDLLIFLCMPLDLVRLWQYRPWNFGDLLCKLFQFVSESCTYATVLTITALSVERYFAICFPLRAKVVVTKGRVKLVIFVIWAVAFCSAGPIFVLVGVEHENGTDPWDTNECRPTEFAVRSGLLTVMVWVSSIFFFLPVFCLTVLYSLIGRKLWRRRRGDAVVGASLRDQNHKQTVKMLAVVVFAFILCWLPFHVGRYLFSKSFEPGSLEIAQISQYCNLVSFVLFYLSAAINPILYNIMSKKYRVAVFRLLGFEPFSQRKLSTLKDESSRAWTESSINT

Molecular target: T1, human recombinant GHS receptor (Homo sapiens, UniProt Q92847)
T1 construct: The full length human GHS-R was subcloned into the mammalian expression vector pcDNA 3.1; expressed in transfected cells; membranes prepared by homogenization
Assay: GHS-Receptor Binding Assay
Details: (125I)ghrelin, membranes of CHO-K1 cells expressing hGHS-R, 60 minute incubation at 4° C.

## O=C(N[C@H](Cc1c[nH]c2ccccc12)C(=O)N[C@H](Cc1ccc2ccccc2c1)c1nc(-c2ccccc2)c[nH]1)C1CCNCC1 [#124]
  Ki: 182 nM
